Data reported in BindingDB's records for doi:10.1021/jm900490a (Duquesne University, 2009).

Target: T1, Bifunctional dihydrofolate reductase-thymidylate synthase (Toxoplasma gondii, UniProt Q07422)
T1 sequence (Q07422 whole entry): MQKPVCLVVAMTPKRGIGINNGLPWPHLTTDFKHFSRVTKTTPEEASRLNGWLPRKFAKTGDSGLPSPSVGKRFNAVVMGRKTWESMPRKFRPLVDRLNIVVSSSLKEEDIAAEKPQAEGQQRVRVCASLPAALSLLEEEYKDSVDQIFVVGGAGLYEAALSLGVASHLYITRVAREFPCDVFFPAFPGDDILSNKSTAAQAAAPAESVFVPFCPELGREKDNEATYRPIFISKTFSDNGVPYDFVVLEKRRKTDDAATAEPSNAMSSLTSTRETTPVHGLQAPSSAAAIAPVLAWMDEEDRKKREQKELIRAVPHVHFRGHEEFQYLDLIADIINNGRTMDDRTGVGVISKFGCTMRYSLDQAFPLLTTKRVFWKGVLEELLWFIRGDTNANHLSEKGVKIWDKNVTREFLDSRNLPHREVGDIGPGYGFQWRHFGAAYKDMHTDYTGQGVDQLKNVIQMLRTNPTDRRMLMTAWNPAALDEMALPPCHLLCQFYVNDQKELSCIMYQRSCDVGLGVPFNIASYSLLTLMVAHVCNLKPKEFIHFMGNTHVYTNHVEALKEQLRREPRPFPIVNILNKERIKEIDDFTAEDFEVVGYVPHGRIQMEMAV

With `Cc1sc2nc(N)[nH]c(=O)c2c1Sc1ccc(C(=O)N[C@@H](CCC(=O)O)C(=O)O)cc1` [thieno[2,3-d]pyrimidine deriv., 1] the IC50 was 36 nM and 8 nM.

Where “and” joins values, the source holds several entries; their conditions need not be identical. Identical values can stand only once.
